Biological target: KDR tyrosine kinase (Homo sapiens, UniProt P35968)
Assay: KDR in vitro ELISA (tyrosine kinase activity)
Settings: read-out: KDR ELISA IC50; ATP 5 μM, 5% DMSO, poly(Glu,Tyr) 4:1 substrate
Excerpt: The coding sequence for the KDR intra-cellular domain (aa789-1354) was generated through PCR using cDNAs isolated from HUVEC cells. A poly-His6 sequence was introduced at the N-terminus of this protein as well. This fragment was cloned into transfection vector pVL1393 at the Xba 1 and Not 1 site. Recombinant baculovirus (BV) was generated through co-transfection using the BaculoGold Transfection reagent (PharMingen). Recombinant BV was plaque purified and verified through Western analysis. For protein production, SF-9 cells were grown in SF-900-II medium at 2×10^6/ml, and were infected at 0.5 plaque forming units per cell (MOI). Cells were harvested at 48 hours post infection.
SF-9 cells expressing (His)6KDR(aa789-1354) were lysed by adding 50 ml of Triton X-100 lysis buffer (20 mM Tris, pH 8.0, 137 mM NaCl, 10% glycerol, 1% Triton X-100, 1 mM PMSF, 10 μg/ml aprotinin, 1 μg/ml leupeptin) to the cell pellet from 1 L of cell culture. The lysate was centrifuged at 19,000 rpm in a Sorval SS-34 rotor for 30 min at 4° C. […] Column fractions were analyzed using SDS-PAGE and an ELISA assay (below) which measures kinase activity. […]
Stop with 1M Phosphoric acid. Shake on plate reader.
Read OD immediately at 450 nm
Optimal incubation times and enzyme reaction conditions vary slightly with enzyme preparations and are determined empirically for each lot.

By UniProt entry, the sequences of proteins in these tests, tags left out. Residues count along the entry.
UniProt P35968, 789-1354 limits assumed: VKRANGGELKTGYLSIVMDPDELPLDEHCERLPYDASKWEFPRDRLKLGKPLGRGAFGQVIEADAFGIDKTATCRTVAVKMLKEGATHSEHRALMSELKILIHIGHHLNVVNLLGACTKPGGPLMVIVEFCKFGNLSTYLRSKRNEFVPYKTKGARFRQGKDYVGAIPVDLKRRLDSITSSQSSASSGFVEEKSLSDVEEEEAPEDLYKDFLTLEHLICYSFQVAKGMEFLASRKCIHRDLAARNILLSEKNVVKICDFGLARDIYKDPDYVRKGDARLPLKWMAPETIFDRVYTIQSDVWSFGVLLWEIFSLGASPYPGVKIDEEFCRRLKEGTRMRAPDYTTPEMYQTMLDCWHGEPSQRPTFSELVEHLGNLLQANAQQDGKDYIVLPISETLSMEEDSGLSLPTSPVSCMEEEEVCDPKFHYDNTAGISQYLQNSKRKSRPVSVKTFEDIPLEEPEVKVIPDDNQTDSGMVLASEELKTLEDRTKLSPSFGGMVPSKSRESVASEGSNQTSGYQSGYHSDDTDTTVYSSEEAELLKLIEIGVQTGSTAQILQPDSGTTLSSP

IC50 [nM] | Compound
2600 | Cc1ccc(-c2n[nH]c3c2C(=O)c2ccccc2-3)cc1
1500 | COc1ccc(-c2n[nH]c3c2C(=O)c2ccccc2-3)cc1

Source: patent US6534655B1, “Indeno[1,2-C]pyrazole derivatives for inhibiting tyrosine kinase activity” (BASF Aktiengesellschaft, priority 1997, dated 2003)
